Test results taken from paper PMC4640066 (Nature Communications, 2015).

Protein sequences, listed by entry. Tags and fused reporters are not part of them.
UniProt P23258, whole entry: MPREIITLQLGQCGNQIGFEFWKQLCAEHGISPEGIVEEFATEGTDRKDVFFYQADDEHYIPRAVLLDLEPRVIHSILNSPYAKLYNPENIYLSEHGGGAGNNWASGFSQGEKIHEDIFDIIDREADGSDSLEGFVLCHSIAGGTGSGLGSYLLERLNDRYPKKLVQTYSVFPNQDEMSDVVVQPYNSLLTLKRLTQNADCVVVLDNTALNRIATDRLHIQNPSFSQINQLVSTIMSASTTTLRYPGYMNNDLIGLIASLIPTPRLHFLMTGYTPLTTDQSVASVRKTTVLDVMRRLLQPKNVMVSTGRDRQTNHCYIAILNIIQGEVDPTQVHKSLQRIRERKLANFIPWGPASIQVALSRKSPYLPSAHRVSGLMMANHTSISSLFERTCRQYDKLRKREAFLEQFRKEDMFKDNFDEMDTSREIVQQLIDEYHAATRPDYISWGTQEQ

Molecular target: T1, human γ-tubulin (Homo sapiens, UniProt P23258)
T1 construct: myc (C); 6His (C); made in house; host or cells: Sf21 insect cells (baculovirus)
Assay: Tryptophan-based drug-binding assay, γ-tubulin
Conditions: tryptophan fluorescence decrease; 1 μM protein; mean±s.d., three independent experiments
Protocol: In brief, 0.7 × 10^6 cells ml^−1 were infected with the γ-tubulin baculovirus. After 48 h, cells were collected by centrifugation at […] for 10 min and flash-frozen in liquid nitrogen and stored at −80 °C. Purification was carried out as described with slight modifications. […] Imidazole (final 10 mM) was added and the lysate was centrifuged again at 192,800g for 30 min at 4 °C. […] Ni-NTA Agarose was then washed twice with wash buffer 1 (lysis buffer containing 25 mM imidazole) and wash buffer 2 (50 mM MES pH 6.6, 500 mM KCl, 5 mM MgCl2, 10% glycerol, 10 μM GTP and 1 mM DTT) containing 25 mM imidazole. γ-Tubulin was eluted with wash buffer 2 containing 200 mM imidazole.
Monomeric γ-tubulin was prepared using a size exclusion column HiLoad 16/60 Superdex 200 pre-equilibrated with gel filtration buffer (50 mM MES pH 6.6, 500 mM KCl, 5 mM MgCl2, 1 mM EGTA, 10 μM GTP and 1 mM DTT). […]
Gel filtration buffer for γ-tubulin purification (50 mM MES pH 6.6, 500 mM KCl, 5 mM MgCl2, 1 mM EGTA and 1 mM DTT) supplemented with 10% of glycerol was used as an assay buffer. γ-tubulin and α/β-tubulin were diluted in this assay buffer to reach a final protein concentration of 1 μM. […] Dissociation constants were calculated from fitting curves of decreasing fluorescence (ΔFL) using the GraphPad Prizm software.

`COc1cc2c(c(OC)c1OC)-c1ccc(OC)c(=O)cc1[C@@H](NC(C)=O)CC2` [Colchicine] was tested, and the Kd was 196 ± 47.9 µM.
